# Measured values as given in patent US20050191668A1, “Methods of using peroxisome proliferator-activated receptor alpha target genes” (priority 2004, published 2005).
# Tested on: Pa21 gene
# Test: Pa21 gene expression by real-time RT-PCR in primary skeletal muscle cells
# Assay type: cell-based, human
# Conditions: 100 uM, about 18-20 hours, vehicle control = 100
# From the text: Human hepatocyte HuH7 cells, which are epithelial cells of liver, were obtained from Japan Health Science Research Resources Bank (Osaka, Japan). Human primary adipocytes, which are connective tissue cells specialized for the synthesis and storage of fat, were obtained from Zen-Bio, Inc (Research Triangle Park, NC). Human primary skeletal muscle cells (SKMC) were obtained from Cambrex Bio Science (Walkersville, Md.). PPARα agonists, Wy14643 (Agatha, et al, 2000, Archives of Biochemistry and Biophysics 380:353-359) and fenofibrates were obtained from Cayman Chemical (Ann Arbor, Mich.) and Sigma (St Louis, Mo.), respectively.
# Human HuH7 cells were cultured in Dulbecco's Modified Eagle Medium with 10% Fetal Bovine Serum (Gibco, N.Y.). […]
# Reverse transcription (RT) and PCR were conducted in one step using “One-Step RT-PCR Master Mix Reagent” kit (Applied Biosystems, Foster City, Calif.) in ABI PRISM 7700 Sequence Detection System (Applied Biosystems). […] PCR data were collected by Ct value (the cycle number at which logarithmic PCR plots cross a calculated threshold line) according to the manufacturer's guidelines and the value was used to determine the Δ^Ct (Ct of the target gene minus the Ct of 18S ribosomal RNA controls). Relative mRNA level was calculated using the equation 2^−ΔΔCt as described previously (Heid et al., 1996, Genome Res. 6:986-994).
smiles,measurement,value
CC(C)OC(=O)C(C)(C)Oc1ccc(C(=O)c2ccc(Cl)cc2)cc1 [Fenofibrate],"Pa21 (H4960) gene expression, Percentage ± SE (%)",670 ± 46%
